Experiments:
[1] = Pharmacokinetic behavior in rats; conditions: SD rats; for F(%): intragastric administration 5 mg/kg vs intravenous 1 mg/kg
Experimental: Test Example 4 Study on the pharmacokinetic behavior of the compounds of the present invention in rats
(§1) Healthy SD rats (SPF grade, source: Beijing Vital River Laboratory Animal Technology Co., Ltd.), 3 animals, male, weighing 180-250 g, were intravenously injected with 1 mg/kg of the compound at a dosing volume of 2 mL/kg. The compound was formulated with 5% DMSO + 10% Solutol + 85% Saline (w/v), and the animals were not fasted prior to the test.
as §1, with “were intragastrically administered” for “were intravenously injected”, “with 5” for “with 1”, “of 10” for “of 2”
Blood samples (approx. 0.25 mL each) were collected via the vein at 5 min, 15 min, 30 min, 1 h, 2 h, 4 h, 6 h, 8 h, and 24 h after intravenous administration, and at 5 min, 15 min, 30 min, 1 h, 2 h, 4 h, 6 h, 8 h, and 24 h after intragastric administration, respectively, using sodium heparin as an anticoagulant. After collection, the blood samples were placed on ice, and the plasma was separated by centrifugation within 1 hour (centrifugation conditions: 6000 g, 3 minutes, 2-8 °C). The concentration of the compound in plasma was determined by liquid chromatography-tandem mass spectrometry. Plasma samples were stored in a -80 °C freezer before analysis. Pharmacokinetic parameters were calculated using Phoenix WinNonlin 8.2.0 based on plasma concentration data at different time points.

[2] = tested on: mouse selective nerve injury model; assay: Analgesic effect in mouse selective nerve injury model (mechanical allodynia, von Frey filaments); conditions: 10 mg/kg p.o. single dose, 1, 2 and 4 hours after administration; larger AUC = better analgesic effect
Experimental: Test Example 5 Study on the analgesic effect of the compounds of the present invention on inhibiting pain in a mouse selective nerve injury model
A 5% DMSO + 10% Solutol + 85% Saline solution was used.
Experimental animals: C57BL/6 mice, weighing 18-22 g, male, purchased from Beijing Vital River Laboratory Animal Technology Co., Ltd.
• (1) The surgical procedure was performed under aseptic conditions. • (2) Surgical instruments (scissors, forceps, scalpels, surgical cotton, and sutures) were sterilized before surgery. • (3) The animals were anesthetized with Zoletil 50 (50 mg/kg) + xylazine hydrochloride injection (8 mg/kg) (intraperitoneal injection, 2.5 mL/kg). The toes of the animals were pinched to confirm complete anesthesia before surgery; an ophthalmic ointment was applied to the eyes of the animals to prevent corneal drying. • (4) The hair in the surgical area of the animals was shaved, and the skin was disinfected three times with iodophor and 70% ethanol; the surgery was started after the skin dried. • (5) The sciatic nerve and its three distal branches (the tibial, common peroneal, and sural nerves) were exposed. The tibial and common peroneal nerves were transected using ophthalmic scissors, and the sural nerve was spared. • (6) The wound was sutured. • (7) The surgical instruments were cleaned and sterilized using a hot bead sterilizer. • (8) After surgery, the animals were placed on a heating pad, and 1 mL of normal saline was injected subcutaneously to prevent dehydration. After the animals were fully awake (able to move freely), they were returned to their cages.
On days 4-6 post-modeling, the animals were placed in the testing environment for habituation for 30 minutes/day for 3 consecutive days. On day 7 post-modeling, the baseline measurement of mechanical allodynia was performed on the modeled animals.
The mice in each group were given a single dose of the corresponding drug via intraperitoneal or oral administration at 10 mL/kg according to the experimental protocol.
On day 8 post-modeling, the mechanical allodynia test was performed on the left hind paw of the mice at 1, 2, and 4 hours after administration.
The mice were placed individually in a Plexiglas box with a wire mesh floor to ensure that the paws of the mice could be tested. The mice were allowed to habituate for 15 minutes before the test.
After habituation, the test was performed using testing filaments on the central plantar surface of the left hind paw of the mice. The testing filaments included 8 testing strengths: 2.36 (0.02 g), 2.44 (0.04 g), 2.83 (0.07 g), 3.22 (0.16 g), 3.61 (0.4 g), 3.84 (0.6 g), 4.08 (1 g), and 4.17 (1.4 g). […] During testing, a rapid paw withdrawal by the animal was recorded as a pain response. Paw withdrawal when the test filament was removed from the animal's skin was also recorded as a pain response. If the animal moved or walked around, it was not recorded as a pain response, and the test should be repeated. […]
Mechanical allodynia is expressed as the paw withdrawal threshold (PWT) in the mouse behavioral test, which is calculated according to the following formula: • 50% response threshold (g)= (10^(Xf+kδ)/10,000 • Xf=value of the final testing filament used in the test • k = tabular value (Chaplan et al. 1994, page 62) • δ = mean difference
Data were analyzed using one-way or two-way analysis of variance (ANOVA) followed by Dunnett's multiple comparisons test in Prism software (GraphPad Software, Inc.). […]

[3] = intragastric administration 5 mg/kg

| Compound | AUClast [1, 3] [ng·h/mL] | Cmax [1, 3] [ng/mL] | T1/2 [1, 3] [h] | F(%) [1] [%] | AUClast ([1]; intravenous injection 1 mg/kg) [ng·h/mL] | CL ([1]; intravenous injection 1 mg/kg) [mL/min/kg] | Cmax ([1]; intravenous injection 1 mg/kg) [ng/mL] | Vss ([1]; intravenous injection 1 mg/kg) [L/kg] | Mean AUC value (AUC0-4h of analgesic effect, paw withdrawal threshold) [2] |
| --- | --- | --- | --- | --- | --- | --- | --- | --- | --- |
| CC(C)Cc1cc(NC2CC(F)(F)C2)c(-c2nn[nH]n2)c(N2CCN(Cc3cccnn3)[C@@H](C)C2)c1 | 19592 | 3729 | 3.6 | 99 | 3939 | 4.46 | 2700 | 0.5 | 3.027 |
| CC(C)Cc1cc(F)c(-c2nn[nH]n2)c(N2CCN(Cc3cccnn3)[C@@H](C)C2)c1 | 5617 | 3303 | 1.3 | 38.3 | 2936 | 5.69 | 5321 | 0.263 | 1.826 |
